# In paper PMC11051159, “Green Synthesis of Gold Nanoparticles Using Liquiritin and Other Phenolics from Glycyrrhiza glabra and Their Anti-Inflammatory Activity” (Journal of Functional Biomaterials, 2024):
# Assays:
# [1] = tested on: human epithelial cells (HT1080); parameters: method as in PMID 30618749; conditions: up to 100 μM; cited from earlier work
# RAW 264.7 cells = assay: Cell viability assay (WST-1); format: cell-based, murine; conditions: for effect on cell viability (in words): 0–100 μg/mL
# Protocol: The RAW 264.7 cells were seeded at 1 × 10^6 cells/mL in 96-well tissue culture-treated plates for cell viability and nitric oxide assays. The seeded cells were incubated under standard tissue culture conditions at 37 °C in a humidified atmosphere of 5% CO2 for approximately 24 h until the cells reached 70–80% confluence. The cells were subsequently exposed to the relevant AuNP conjugates, total extract, or compounds. After that, the cells were either left unstimulated or stimulated with 1 μg/mL lipopolysaccharide (LPS, from E. coli O111:B4, Sigma-Aldrich) to yield a final concentration range of 0–100 μg/mL of the appropriate treatment. The cells were then incubated overnight under standard tissue culture conditions.
# The supernatants were removed after incubation, and cells were washed with phosphate-buffered saline (PBS, Lonza). Cell viability was assessed by adding 50 μL of a 1/10 dilution of 2-(4-iodophenyl)-3-(4-nitrophenyl)-5-(2,4-disulfophenyl)-2H-tetrazolium (WST-1, Roche, Basel, Switzerland) in complete DMEM medium to each well. Metabolically active cells convert the WST-1 reagent to a formazan that can be measured spectrophotometrically. Formazan formation was determined by reading the plate at 450 nm immediately after adding WST-1 and again after an incubation period of 1 h at 37 °C. The increase in absorbance is proportional to formazan formation and directly proportional to cell viability. The difference between the zero-absorbance reading and 1 hr incubation was used to calculate the percentage of cell viability. Cell viability was calculated as a percentage of the control using the below formula:(1) Cell viability as a % of Control=T1−T0/U1−U0×100 where T1 is the absorbance of the treated sample after 1 h, T0 is the absorbance of the treated at 0 h, U1 is the absorbance of the untreated sample after 1h, and U0 is the absorbance of the untreated sample at 0 h.
Substance,effect on cell proliferation (in words) [1],"effect on cell viability (in words) (RAW 264.7 cells; RAW 264.7, absence of LPS)","effect on cell viability (in words) (RAW 264.7 cells; RAW 264.7, absence of LPS, listed as isoliquiritin apioside (4))","effect on cell viability (in words) (RAW 264.7 cells; RAW 264.7, presence of LPS)","effect on cell viability (in words) (RAW 264.7 cells; RAW 264.7, presence of LPS, listed as Liquiritin apioside (5))","effect on cell viability (in words) (RAW 264.7 cells; RAW 264.7, presence of LPS, listed as liquiritin apioside (5))","concentration at which cell viability was significantly decreased (cytotoxic) (RAW 264.7 cells; RAW 264.7, presence of LPS, range tested 0–100 μg/mL) [ng/mL]"
isoliquiritin apioside [Comp. 4],did not affect cell proliferation,did not affect cell viability,did not impact cell viability,–,–,–,–
liquiritin apioside [Comp. 5],–,–,–,did not negatively impact cell viability,did not affect RAW cell proliferation,did not hinder cell proliferation,≥ 6250
